Assay results taken from ChEMBL document CHEMBL1124725, “Inhibition of steroid 5 alpha-reductase by unsaturated 3-carboxysteroids” (J Med Chem, 1990).

Target: T1, 3-oxo-5-alpha-steroid 4-dehydrogenase 2 (Homo sapiens, UniProt P31213)
T1 sequence (P31213 whole entry): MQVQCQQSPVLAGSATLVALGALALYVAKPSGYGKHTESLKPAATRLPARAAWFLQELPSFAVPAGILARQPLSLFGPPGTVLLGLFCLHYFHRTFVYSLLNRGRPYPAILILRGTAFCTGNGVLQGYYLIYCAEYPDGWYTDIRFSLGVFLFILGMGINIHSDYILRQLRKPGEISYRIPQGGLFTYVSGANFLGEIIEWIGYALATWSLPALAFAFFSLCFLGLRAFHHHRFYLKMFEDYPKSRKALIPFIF
Assay: In vitro inhibition of Steroid 5-alpha-reductase in human prostatic tissue.
Conditions: read-out: Ki app
Summary of the method: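 Microsomes from surgically derived benign hyperplastic human prostate. Incubation was in 50 mM sodium citrate, pH 5.0, with 400 μM NADPH at 37 °C for 20–30 min, with ≤20% of T consumed. The reaction was quenched with ethyl acetate, and the read-out was total 5α-reduced products (DHT + ADIOL). Ki,app came from Dixon plots, or IC50 if nonlinear; ranges span microsome preparations.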

Ki: 170 nM
SMILES: CC1=C2C=C(C(=O)O)CC[C@]2(C)C2CC[C@@]3(C)C(CC[C@@H]3C(=O)N(C(C)C)C(C)C)C2C1 (stereo partly specified)
